We go through six compounds from ChEMBL document CHEMBL3593245 (J Med Chem, 2015).

SMILES strings stand for the structures. ≈ marks a conversion by molar mass, not a printed value.

For orientation: solubility means how much of the substance goes into solution per volume.

Test system in one data set: not listed separately
The data set is described as follows: […] solubility of the compound in water after 24 hrs by HPLC analysis. The data set is classed as physicochemical. Particulars: buffer.
For `CC(C)(C)c1cc(C(=O)/C(C#N)=N/Nc2cc(Cl)cc(C(F)(F)F)c2)no1`, the solubility amounted to 50.4 µM (≈ 20.1 µg/mL).

Another data set concerns the target T1, Rap guanine nucleotide exchange factor 4 (Mus musculus) (UniProt Q9EQZ6).
T1 sequence (whole entry): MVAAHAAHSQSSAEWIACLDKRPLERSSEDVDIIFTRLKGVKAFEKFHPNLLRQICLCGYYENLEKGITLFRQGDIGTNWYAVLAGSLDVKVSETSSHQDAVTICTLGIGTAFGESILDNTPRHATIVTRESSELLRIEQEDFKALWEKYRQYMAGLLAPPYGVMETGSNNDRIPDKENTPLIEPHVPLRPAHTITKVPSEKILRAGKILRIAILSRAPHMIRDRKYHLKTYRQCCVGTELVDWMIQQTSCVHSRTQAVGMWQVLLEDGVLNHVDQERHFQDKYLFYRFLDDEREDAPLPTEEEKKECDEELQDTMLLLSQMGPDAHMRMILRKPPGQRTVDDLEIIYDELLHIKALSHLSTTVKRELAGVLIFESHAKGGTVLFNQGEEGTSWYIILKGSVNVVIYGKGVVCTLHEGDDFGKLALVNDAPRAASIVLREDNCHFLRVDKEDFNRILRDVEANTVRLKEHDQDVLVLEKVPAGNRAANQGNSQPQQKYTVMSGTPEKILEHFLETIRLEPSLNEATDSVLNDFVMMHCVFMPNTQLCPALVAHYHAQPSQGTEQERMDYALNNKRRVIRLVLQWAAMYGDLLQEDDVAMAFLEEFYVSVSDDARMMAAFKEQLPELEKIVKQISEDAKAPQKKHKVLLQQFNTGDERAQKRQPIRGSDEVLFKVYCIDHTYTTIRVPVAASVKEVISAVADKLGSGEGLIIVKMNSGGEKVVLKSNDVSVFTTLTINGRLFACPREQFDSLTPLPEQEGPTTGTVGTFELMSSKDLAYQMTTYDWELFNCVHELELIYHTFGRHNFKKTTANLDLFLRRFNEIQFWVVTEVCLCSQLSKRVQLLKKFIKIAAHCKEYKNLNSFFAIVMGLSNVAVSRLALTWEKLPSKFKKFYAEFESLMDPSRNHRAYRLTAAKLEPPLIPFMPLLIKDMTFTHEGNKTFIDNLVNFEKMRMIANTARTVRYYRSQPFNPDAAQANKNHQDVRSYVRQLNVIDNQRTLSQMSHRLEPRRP
The data set can be described thus: Ratio of cAMP IC50 to compound IC50 for displacement of 8-NBD-cAMP from mouse recombinant EPAC2 by fluorescence assay.
Settings: not given
Consider `CC(C)(C)c1cc(C(=O)/C(C#N)=N/Nc2cccc(C#N)c2)no1`, for which the Ratio IC50 is 0.5. Still for that read-out and setting: in the case of `N#C/C(=N\Nc1cccc(Cl)c1)C(=O)c1cc(C2CC2)on1` it was 0.5; in that of `CC(C)(C)c1cc(C(=O)/C(C#N)=N/Nc2cc(Cl)cc(C(F)(F)F)c2)no1`, 20.

Consider `CC(C)(C)c1cc(C(=O)/C(C#N)=N/Nc2cc(Cl)c(Cl)c(Cl)c2)no1`, for which the Ratio IC50 worked out at 35.6. On the same count and under the same terms, the same measure for `CCOC(=O)c1cccc(N/N=C(\C#N)C(=O)c2cc(C(C)(C)C)on2)c1`: 0.4. Same read-out and setting: the same measure for `CC(C)(C)c1cc(C(=O)/C(C#N)=N/Nc2cc(C(F)(F)F)cc(C(F)(F)F)c2)no1`: 5.
